Values of other authors, collected in article PMC10385865, “Synthesis and Anticancer Activity of Novel Dual Inhibitors of Human Protein Kinases CK2 and PIM-1” (Pharmaceutics, 2023).

Target: CK2
Design: method as in PMID 33807474
Conditions: Figure 1, representative CK2 inhibitors; cited from earlier work

CN(C)c1nc2c(Br)c(Br)c(Br)c(Br)c2[nH]1 [Compound 4, 4,5,6,7-Tetrabromo-N,N-dimethyl-1H-benzimidazol-2-amine, reference compound]
Ki: 40 nM
